Key:
[1] = biological target: human dopamine D3 receptors in CHO cells (Homo sapiens (Human), UniProt P35462); assay: D3 inhibition of quinpirole stimulation of mitogenesis (antagonist assay); assay type: cell-based; conditions: inhibition of 30 nM quinpirole stimulated mitogenesis, CHOp cells; read-out: IC50 ± S.E.M., D3
[2] = biological target: D2 receptor (human) in CHOp-cells (Homo sapiens (Human), UniProt P14416); assay: D2 inhibition of quinpirole stimulation of mitogenesis (antagonist assay); assay type: cell-based; conditions: inhibition of 30 nM quinpirole stimulated mitogenesis, read-out: IC50 ± S.E.M., D2
[3] = biological target: human dopamine D2-long (D2) receptor (Homo sapiens (Human), UniProt P14416); assay: Human D2-like receptor competition binding in HEK cells, D2; conditions: hD2L

Amino acid sequences for entries named in this document (tags omitted).
UniProt P35462, whole entry: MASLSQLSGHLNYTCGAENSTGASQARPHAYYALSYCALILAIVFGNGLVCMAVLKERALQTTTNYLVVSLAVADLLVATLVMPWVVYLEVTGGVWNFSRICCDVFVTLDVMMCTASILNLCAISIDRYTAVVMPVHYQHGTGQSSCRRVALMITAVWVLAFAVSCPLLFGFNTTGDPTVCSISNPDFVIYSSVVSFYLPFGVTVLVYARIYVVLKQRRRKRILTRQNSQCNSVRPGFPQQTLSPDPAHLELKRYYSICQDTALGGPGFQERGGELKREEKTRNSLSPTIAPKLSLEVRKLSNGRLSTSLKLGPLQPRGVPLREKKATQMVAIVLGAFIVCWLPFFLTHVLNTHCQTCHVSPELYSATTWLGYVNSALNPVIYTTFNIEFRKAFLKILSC
UniProt P14416, whole entry: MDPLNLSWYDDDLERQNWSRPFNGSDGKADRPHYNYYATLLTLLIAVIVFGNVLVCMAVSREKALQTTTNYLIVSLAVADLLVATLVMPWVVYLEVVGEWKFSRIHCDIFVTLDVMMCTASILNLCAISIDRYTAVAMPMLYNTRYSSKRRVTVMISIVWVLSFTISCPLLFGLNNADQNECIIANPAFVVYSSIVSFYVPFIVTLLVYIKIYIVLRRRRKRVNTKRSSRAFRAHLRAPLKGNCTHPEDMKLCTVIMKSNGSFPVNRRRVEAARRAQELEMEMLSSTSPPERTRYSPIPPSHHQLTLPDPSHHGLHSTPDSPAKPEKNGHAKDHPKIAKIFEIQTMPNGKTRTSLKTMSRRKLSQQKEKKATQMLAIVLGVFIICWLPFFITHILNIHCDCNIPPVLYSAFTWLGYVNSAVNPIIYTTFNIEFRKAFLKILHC

Row | SMILES | IC50 [1] | IC50 [2] | Ki [3]
1 | COc1ccccc1N1CCN(C/C=C/CNC(=O)c2ccc3c(c2)Cc2ccccc2-3)CC1 [Compound 15, N-(4-(4-(2-methoxyphenyl)piperazin-1-yl)-trans-but-2-enyl)-9H-fluorene-2-carboxamide] | 18.9 ± 4.2 nM |  | 
2 | COc1ccccc1N1CCN(C/C=C/CNC(=O)c2ccc(-c3ccccn3)cc2)CC1 [Compound 14, N-(4-(4-(2-Methoxy-phenyl)-piperazin-1-yl)-trans-but-2-enyl)-4-pyridin-2-yl-benzamide] |  | 175 ± 17 nM | 69 nM

Reference: patent US8748608B2, “4-phenylpiperazine derivatives with functionalized linkers as dopamine D3 receptor selective ligands and methods of use” (The United States of America as Represented by the …, priority 2007, dated 2014)
